Protein sequences, listed by entry. Tags and fused reporters are not part of them. Chains listed by the source or under a name are the forms on record and can include a tag or linker.
UniProt P36544, with tags, fused parts or gaps L131N: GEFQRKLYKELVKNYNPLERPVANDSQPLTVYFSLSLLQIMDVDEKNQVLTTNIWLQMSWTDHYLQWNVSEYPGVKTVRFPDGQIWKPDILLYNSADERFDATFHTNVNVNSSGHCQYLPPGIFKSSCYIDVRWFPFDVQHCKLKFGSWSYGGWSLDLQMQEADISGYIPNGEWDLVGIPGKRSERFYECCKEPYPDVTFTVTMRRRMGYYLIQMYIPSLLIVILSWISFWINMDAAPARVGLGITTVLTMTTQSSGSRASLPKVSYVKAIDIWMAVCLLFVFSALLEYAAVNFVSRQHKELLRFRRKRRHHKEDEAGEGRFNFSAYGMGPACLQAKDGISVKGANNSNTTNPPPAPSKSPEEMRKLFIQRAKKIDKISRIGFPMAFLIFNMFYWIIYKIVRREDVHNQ
UniProt P36544, with tags, fused parts or gaps: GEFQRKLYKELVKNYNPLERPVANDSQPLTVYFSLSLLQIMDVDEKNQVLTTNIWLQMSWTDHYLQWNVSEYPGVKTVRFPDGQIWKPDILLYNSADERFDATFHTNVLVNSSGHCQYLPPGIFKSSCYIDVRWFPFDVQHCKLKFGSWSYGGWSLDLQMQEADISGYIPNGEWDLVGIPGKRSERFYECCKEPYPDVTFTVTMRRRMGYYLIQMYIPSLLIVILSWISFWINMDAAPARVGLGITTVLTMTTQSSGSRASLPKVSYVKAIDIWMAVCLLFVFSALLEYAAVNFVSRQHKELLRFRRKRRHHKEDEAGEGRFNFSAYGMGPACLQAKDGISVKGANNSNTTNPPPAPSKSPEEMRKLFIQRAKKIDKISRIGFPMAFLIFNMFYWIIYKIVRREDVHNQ
UniProt P36544, with tags, fused parts or gaps L131F: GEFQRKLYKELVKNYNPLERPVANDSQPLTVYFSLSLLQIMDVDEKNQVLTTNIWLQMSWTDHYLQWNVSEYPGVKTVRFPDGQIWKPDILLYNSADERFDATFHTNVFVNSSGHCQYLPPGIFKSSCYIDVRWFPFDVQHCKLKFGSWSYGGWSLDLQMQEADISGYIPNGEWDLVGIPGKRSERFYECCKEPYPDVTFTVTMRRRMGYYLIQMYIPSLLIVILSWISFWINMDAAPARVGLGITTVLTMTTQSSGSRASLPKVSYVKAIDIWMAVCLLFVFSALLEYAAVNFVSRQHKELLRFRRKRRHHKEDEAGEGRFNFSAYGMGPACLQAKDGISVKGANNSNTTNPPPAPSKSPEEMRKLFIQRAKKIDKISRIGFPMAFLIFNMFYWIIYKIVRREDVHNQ
UniProt P36544, with tags, fused parts or gaps L131M limits assumed: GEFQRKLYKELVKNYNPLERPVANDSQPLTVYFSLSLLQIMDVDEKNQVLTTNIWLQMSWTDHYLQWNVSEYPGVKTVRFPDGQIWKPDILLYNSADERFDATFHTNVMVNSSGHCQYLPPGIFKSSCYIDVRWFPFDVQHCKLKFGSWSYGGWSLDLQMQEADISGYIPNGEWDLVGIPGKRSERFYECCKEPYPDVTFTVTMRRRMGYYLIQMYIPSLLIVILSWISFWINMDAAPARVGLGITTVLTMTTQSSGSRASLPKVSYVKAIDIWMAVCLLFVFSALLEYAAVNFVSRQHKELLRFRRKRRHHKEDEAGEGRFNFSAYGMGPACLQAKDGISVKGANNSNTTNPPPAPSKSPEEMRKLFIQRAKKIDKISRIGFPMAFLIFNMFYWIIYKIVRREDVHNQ
UniProt P36544, with tags, fused parts or gaps L131Q limits assumed: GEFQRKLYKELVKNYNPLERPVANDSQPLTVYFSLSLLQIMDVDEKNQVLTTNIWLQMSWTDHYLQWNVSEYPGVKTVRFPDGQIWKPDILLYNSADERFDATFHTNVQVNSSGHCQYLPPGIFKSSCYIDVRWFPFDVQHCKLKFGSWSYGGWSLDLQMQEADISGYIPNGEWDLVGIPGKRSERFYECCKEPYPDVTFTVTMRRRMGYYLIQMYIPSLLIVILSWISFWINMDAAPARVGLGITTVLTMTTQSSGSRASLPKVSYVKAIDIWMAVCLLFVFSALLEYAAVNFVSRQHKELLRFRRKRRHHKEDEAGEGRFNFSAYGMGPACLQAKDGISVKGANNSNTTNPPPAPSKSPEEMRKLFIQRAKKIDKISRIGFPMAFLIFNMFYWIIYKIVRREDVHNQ

According to patent US12247064B2, “Modified ligand-gated ion channels and methods of use” (Howard Hughes Medical Institute, priority 2017, dated 2025):

Columns and labels:
[1] = molecular target: T1, α7^L131N-GlyR (Homo sapiens, UniProt P36544, L131N); format: cell-based
T1 construct: expressed in transfected cells

[2] = molecular target: α7-GlyR (Homo sapiens, UniProt P36544); test: cell-based
[3] = molecular target: T2, α7^L131F-GlyR (Homo sapiens, UniProt P36544, L131F); format: cell-based
T2 construct: expressed in transfected cells

[4] = molecular target: T3, α7^L131M-GlyR (Homo sapiens, UniProt P36544, L131M); format: cell-based
T3 construct: expressed in transfected cells

[5] = molecular target: T4, α7^L131Q-GlyR (Homo sapiens, UniProt P36544, L131Q); format: cell-based
T4 construct: expressed in transfected cells

**Q.** What does the source list for `c1ccc(-c2cnc3cc4c(cc3n2)C2CNCC4C2)cc1` (stereo not drawn) [compound 765]?
**A.** EC50 [1]: > 10000 nM; EC50 [2]: > 100000 nM

**Q.** For `Cc1nc2cc3c(cc2nc1-c1ccccc1)C1CNCC3C1` (stereo not drawn) [compound 770], which EC50 [3] is on record?
**A.** 34 nM

**Q.** What about the EC50 [1] of the same compound?
**A.** > 10000 nM

**Q.** What about the EC50 [4] of the same compound?
**A.** 30 nM

**Q.** What about the EC50 [5] of the same compound?
**A.** > 300 nM
